This is an account of results in paper PMC3776556, “Crystal structures of the CPAP/STIL complex reveal its role in centriole assembly and human microcephaly” (eLife, 2013).

For assay [1], the target named is T1, Danio rerio CPAP^937–1124 TCP domain T986V (Danio rerio, UniProt E7FCY1 937-1124, T986V).
T1 construct: remnant of the cloning and protease cleavage sites at the N-terminus; source: E. coli BL21 (DE3) Rosetta, purified (NiNTA, proteolytic tag cleavage, optionally size exclusion, ion exchange); not shown: His tag, N-terminal, cleaved
T1 sequence: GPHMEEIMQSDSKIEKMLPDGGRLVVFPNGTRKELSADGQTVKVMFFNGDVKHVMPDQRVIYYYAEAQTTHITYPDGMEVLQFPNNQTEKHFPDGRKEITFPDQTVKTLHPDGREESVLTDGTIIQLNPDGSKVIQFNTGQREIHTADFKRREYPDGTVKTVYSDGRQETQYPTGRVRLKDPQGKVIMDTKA
The assay is described as follows: ITC; STIL peptide in syringe titrated into CPAP TCP domain in cell; 50 mM HEPES pH 7.5, 100 mM NaCl, 25°C; single set of binding sites model, N as a variable; CPAP typically 40 μM, STIL typically 700 μM. Particulars: both partners purified.

The target of assay [2] is T2, Danio rerio CPAP^937–1124 TCP domain, WT (Danio rerio, UniProt E7FCY1 937-1124).
T2 construct: remnant of the cloning and protease cleavage sites at the N-terminus; also called TCP domain of D. rerio CPAP; G-box; source: E. coli BL21 (DE3) Rosetta, purified (NiNTA, proteolytic tag cleavage, optionally size exclusion, ion exchange); not shown: His tag, N-terminal, cleaved
T2 sequence: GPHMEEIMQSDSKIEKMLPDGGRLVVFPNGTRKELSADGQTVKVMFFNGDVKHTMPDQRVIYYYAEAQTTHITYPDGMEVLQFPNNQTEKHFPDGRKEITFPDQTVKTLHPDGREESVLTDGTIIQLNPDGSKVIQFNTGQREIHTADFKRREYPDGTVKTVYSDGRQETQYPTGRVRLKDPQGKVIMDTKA
The description is as above. The following applies: both partners purified.

B1: Danio rerio STIL^404–448, WT (peptide)
chain: GGSDHDSGVEDEDLSPRPSPNPHPVSQQTKRVHPLVPELSMVLDGSFEFGENLYFQ
notes: remnant of the cloning and protease cleavage sites at the N-terminus; STIL, Danio rerio, 1263 aa protein, residues 404-448 spanning the conserved proline-rich region CR2; remnant of the cloning and protease cleavage sites at the C-terminus; also called fragment of D. rerio STIL that spanned CR2; source: E. coli C41 BL21 (DE3), purified (NiNTA, proteolytic cleavage of the His-lipoyl domains, ion …)
What is called Kd is the free concentration of one partner at which half of the binding sites on the other are occupied at equilibrium, for simple one-to-one binding. Read a low Kd as tighter binding. B1: the Kd in assay [1] and in assay [2] was 1900 nM throughout.
